# PubChem BioAssay AID624297 (National Center for Advancing Translational Sciences (NCATS), 2012)
# Only a part is listed here, and it is no random draw. Results filed as inconclusive are left out. Calls of active or inactive are those of the source. The call rests on the fitted dose curve; in most records, active means well fitted activation curve with a large enough effect; inconclusive means small, poorly fitted or top-dose-only effect; inactive means no such curve, though single readings can be large or run the other way.
# Test: A quantitative high throughput screen for small molecules that induce DNA re-replication in SW480 colon adenocarcinoma cells. Further: nearly all actives have a fitted effect of over 55% in size. On re-replication activation: % of control where 0% means no effect.
# Details: Hoechst DNA content imaging, 48 h; series mostly up to 46.1 µM; re-replication activation: at the top concentration
# Potency means the concentration at half of the fitted maximal effect.
Structure (SMILES),re-replication activation,Potency
NC(=O)c1cc([N+](=O)[O-])cc([N+](=O)[O-])c1N,inactive: -21.8%,–
Cc1ccc(N/C(=N/P(=O)(N2CCOCC2)N2CCOCC2)N2CCOCC2)cc1,inactive: 16.2%,–
CN(C(=O)Cc1ccc(Cl)c(Cl)c1)[C@H]1CCCC[C@H]1N1CCCC1,inactive: -5.03%,–
Cc1ccc(OP(=O)(Nc2nccs2)Oc2ccc(C)cc2)cc1,inactive: -8.02%,–
COc1ccccc1OP(=O)(Nc1ccc(C)cn1)Oc1ccccc1OC,–,active: 3.66 µM
Clc1ccc(Cl)c(NC2=NCC(CBr)S2)c1 (stereo not given),inactive: 2.43%,–
CN1CCCC(OC(=O)C(c2ccccc2)c2ccccc2)C1 (stereo not given),inactive: -0.124%,–
CC(C)CC(=O)NC(Sc1ccc(Cl)cc1)C(Cl)(Cl)Cl (stereo not given),inactive: 1.36%,–
Nc1cc(N)c2nonc2c1[N+](=O)[O-],inactive: -12.7%,–
O=C(NC(Sc1ccncn1)C(Cl)(Cl)Cl)c1ccccc1 (stereo not given),inactive: -4.62%,–
Oc1ccccc1CNc1ccccn1,inactive: 0.951%,–
CCCC1OP(N)(=O)OCC1CC (stereo not given),inactive: -1.36%,–
O=C(O)c1ccccc1[As](=O)(O)O,inactive: 2.54%,–
CC(=O)Nc1ccc([As](=O)(O)O)cc1,inactive: 2.12%,–
O=P(Nc1nc2ccc(Cl)cc2s1)(c1ccccc1)c1ccccc1,inactive: 0.118%,–
CN(C(=O)Cc1ccc(Cl)c(Cl)c1)[C@H]1CCCC[C@@H]1N1CCCC1,inactive: 2.55%,–
Cc1ccc(NP(=O)(Oc2ccccc2F)Oc2ccccc2F)nc1,inactive: -81.9%,–
CCOP(=O)(Nc1ccccc1)OCC,inactive: -1.95%,–

Structure (SMILES),re-replication activation,Potency
Cc1cc(SC(NC(=O)c2ccc(F)cc2)C(Cl)(Cl)Cl)ncn1 (stereo not given),inactive: -15.1%,–
CCN(N=Nc1nonc1N)c1nonc1N,inactive: -0.0879%,–
Nc1cccc2ccc([As](=O)(O)O)cc12,inactive: -1.32%,–
O=P1(N(CCCl)CCCl)OCCCS1 (stereo not given),inactive: -0.812%,–
O=C(Nc1cc([As](=O)(O)O)ccc1O)c1ccccc1,inactive: -6.45%,–
CC(C)(C)C(=O)NC(Sc1ccncn1)C(Cl)(Cl)Cl (stereo not given),inactive: -3.2%,–
O=[N+]([O-])c1ncn(CCn2ncnc2[N+](=O)[O-])n1,inactive: -11.2%,–
O=[N+]([O-])c1cccc(NC2=NCC(CBr)S2)c1 (stereo not given),inactive: -15.1%,–
COC(=O)C1(C)COP(=O)(Nc2ccccc2)OC1 (stereo not given),inactive: -1.07%,–
O=C(O)CNc1ccc([As](=O)(O)O)cc1,inactive: 6.5%,–
COc1ccc(C2=NCC(CBr)S2)cc1 (stereo not given),inactive: 2.63%,–
CC(=O)N1C2C3N(C(C)=O)C1C1N(C(C)=O)C(C(N1C(C)=O)N3C(C)=O)N2C(C)=O,inactive: -6.75%,–
O=[N+]([O-])c1cccc2n[nH]nc12,inactive: -5.95%,–
Nc1ccc([As](=O)(O)c2ccc(N)cc2)cc1,inactive: -2.24%,–
CCN(/C(=N/P(=O)(N1CCOCC1)N1CCOCC1)N1CCOCC1)c1ccc(OC)cc1,inactive: 3.23%,–
CN(C)C(=O)OCCc1n(C)cc[n+]1C,inactive: -4.88%,–
CC(C)=N/N=C(\N)N[N+](=O)[O-],inactive: -10.5%,–
